Reference: patent US5401724A, “Therapeutic treatment of chronic myelogenous leukemia by administration of 2-chloro-2'-deoxy adenosine” (priority 1994, dated 1995)

How the values were obtained:
[1] = system: total circulating peripheral blood granulocytes; assay: Effect of 2-CdA on total circulating peripheral blood granulocytes in a patient with CML (Example 2); assay type: in vivo, human; settings: second course, day 17
Procedure: Each course was repeated every 28 days until the maximum hematological remission response of the treatment was achieved. The median age of the patients was 60 years, with a range of 52 to 75 years. There were 3 males and 2 females. A median of 2 courses of treatment was administered, with a range of 1 to 4 courses.

adenosine deaminase = settings: cited from earlier work
neutrophils = settings: 0.1 mg/kg per day over 7 days; cutaneous T cell lymphoma; cited from earlier work

## Nc1nc(Cl)nc2c1ncn2[C@H]1C[C@H](O)[C@@H](CO)O1 [2-CdA, 2-chloro-2'-deoxyadenosine]
[1]
  decrease relative to the granulocyte count at day zero: over 98%
Adenosine deaminase
  resistance to adenosine deaminase: resistant to adenosine deaminase
neutrophils
  sensitivity of neutrophils relative to monocytes and lymphocytes: more resistant to 2-CdA than their monocytes and lymphocytes
